Compound activity from PubChem BioAssay.
The list is not random: actives were taken first. Their share in the collection is about 1.1%.
miR-21 reporter: miR-21 reporter, rising signal. 340,000 tested, under 10 active. Potency, µM (highest dose often 38.3 µM), for the others: at the highest dose reporter change, positive = more light. HeLa miR-21 FLuc reporter, luciferase, 48 h. AID 2288; active = well fitted rising curve with a large enough effect; inconclusive = small, poorly fitted or top-dose-only effect; inactive = no such curve, though single readings can be large or run the other way;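 further: % of control where 0% means no effect; miR-21 action dims this reporter so a rising signal means less miR-21 action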
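Luminescence from a firefly luciferase reporter carrying a miR-21 binding site downstream, stably expressed under a CMV promoter in HeLa cells that make miR-21 endogenously, reports miRNA modulation after 48 h compound exposure up to approximately 40uM final.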
BRCA1 expr up: increases BRCA1 expression; MCF7-BRCA1-FFLuc reporter, luminescence, 48 h; response scale: scaled: vehicle 0%, 10 µM genistein 100%; Potency, µM (titrated, usually from 46.1 µM), inactives show top-dose activation, most hits filed as activators; hit rate 1.1% among 380,000; AID 624202; further: potency means the concentration at half of the fitted maximal effect; nearly all actives have a fitted effect of over 80% in size
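Compounds are tested at multiple concentrations on MCF7 BRCA1-luciferase reporter cells seeded at 2000 per well; after 48 h, a single luminescence end-point is taken and curves fitted to the normalized data.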
Apoferritin bind: binds horse apoferritin like a general anesthetic; P02791; hit rate 0.074% among 350,000; Potency, µM (titrated, usually from 77.5 µM), inactives show at the top dose activity change, negative = displacement, actives largely listed as inhibitors; apoferritin/1-aminoanthracene competitive binding, fluorescence; further: potency means the concentration at half of the fitted maximal effect; on the % scale 0 is the no-effect control and ±100 the full control effect; nearly all actives have a fitted effect of over 20% in size
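Read-out: endpoint 1-AMA fluorescence, excitation 380 nm and emission 535 nm, after compounds sit 10 min at room temperature with 10 uM horse-spleen apoferritin in 50% saturated 1-AMA/PBS. Values come from four-parameter Hill fits.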
p53 reactivator: mutant p53 re-activation in reporter cells; H1299 p53-A138V BP100-luciferase reporter, luminescence, 24 h; Potency, µM (doses to about 92.2 µM), for the others: at the top dose activity change, positive = activation, hits mostly activators; hit rate 0.063% among 320,000; AID 504706; further: potency means the concentration at half of the fitted maximal effect; % of control where 0% means no effect; nearly all actives have a fitted effect of over 45% in size
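H1299 (p53-null), stable ts p53-A138V + BP100-Luc; 1000 cells/well, Opti-MEM/10% FBS; cpd 4 pt, 1:5; 24 h, 37 deg C, 5% CO2; detection reagent 10 min RT; luminescence.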
* = called active by the depositor; ? = inconclusive; nt = no result. Unless noted, the call rests on the fitted dose curve; in most records, active means well fitted curve in the direction sought with a large enough effect; inconclusive means small, poorly fitted or top-dose-only effect, or another doubt; inactive means no such curve, though single readings can be large; an effect the other way counts as inactive or inconclusive.

Labels used below: A = miR-21 reporter; B = BRCA1 expr up; C = Apoferritin bind; D = p53 reactivator
[1] O=[N+]([O-])c1cccc(/C=N/Nc2ccccn2)c1
  A: -33%	B: 28%	C: -5%	D: 1%
[2] CC(=O)Nc1ccc(NC(=O)Nc2ccc3c(c2)N(C)C(=O)CS3)cc1
  A: 20%	B: -3%	C: -10%	D: -5%
[3] O=[N+]([O-])c1ccc(NN=Cc2ccco2)nc1
  A: nt	B: 10µM*	C: nt	D: nt
[4] CN1C(=O)CSc2ccc(NC(=O)Nc3ccccn3)cc21
  A: -23%	B: 4µM*	C: -6%	D: 0%
[5] COC(CN(C)C(=O)C1CCCN(S(=O)(=O)c2ccc3c(c2)oc(=O)n3C)C1)OC (stereo unspecified)
  A: 0%	B: 6%	C: 5%	D: -2%
[6] COc1ccc(NC(=O)Nc2ccccn2)cc1OC
  A: -46%	B: 13µM*	C: 3%	D: 12%
[7] CN(C)c1ccc(/C=N\Nc2ccccn2)cc1
  A: -61%	B: ?	C: 46%	D: 25%
[8] O=C(O)c1ccc(/C=N\Nc2ccccn2)cc1
  A: nt	B: 2.5µM*	C: nt	D: nt
[9] COc1ccc(/C=N/Nc2ccccn2)cc1OC
  A: -58%	B: 10µM*	C: -2%	D: 11%
[10] O=C(Nc1ccc2c(c1)CCC2)c1cc(F)cc(F)c1
  A: nt	B: 3.2µM*	C: nt	D: ?
[11] CSc1ccccc1C(=O)Nc1ccc2c(c1)CCC2
  A: -62%	B: 11µM*	C: 0%	D: ?
[12] O=C(Nc1ccc2c(c1)CCC2)c1cccc(F)c1
  A: -61%	B: ?	C: 1%	D: ?
[13] O=C(Nc1ccc2c(c1)CCC2)c1ccccc1Br
  A: -36%	B: ?	C: -16%	D: ?
[14] CC(=O)Nc1ccc(C2=NOC(C)(C)C(=O)N2Cc2cccc(C#N)c2)cc1
  A: nt	B: 15%	C: nt	D: nt
[15] CN(Cc1ccccc1)C(=O)c1ccc(NC(=O)Cc2cccc(NC(=O)C3CCN(C(=O)C4CCC4)CC3)c2)cc1
  A: nt	B: -9%	C: nt	D: 19%

Looked up by structure from the entries so far (4):
Labels used below: A = miR-21 reporter; B = BRCA1 expr up; C = Apoferritin bind; D = p53 reactivator
[15] CN(Cc1ccccc1)C(=O)c1ccc(NC(=O)Cc2cccc(NC(=O)C3CCN(C(=O)C4CCC4)CC3)c2)cc1
  A: nt	B: -9%	C: nt	D: 19%
[2] CC(=O)Nc1ccc(NC(=O)Nc2ccc3c(c2)N(C)C(=O)CS3)cc1
  A: 20%	B: -3%	C: -10%	D: -5%
[13] O=C(Nc1ccc2c(c1)CCC2)c1ccccc1Br
  A: -36%	B: ?	C: -16%	D: ?
[11] CSc1ccccc1C(=O)Nc1ccc2c(c1)CCC2
  A: -62%	B: 11µM*	C: 0%	D: ?

Additional records:
Labels used below: A = miR-21 reporter; B = BRCA1 expr up; C = Apoferritin bind; D = p53 reactivator
[16] CCOc1ccc(OCC)c(NC(=O)c2cnc(SC)nc2-c2ccccc2)c1
  A: ?	B: nt	C: -7%	D: nt
[17] O=C(Nc1ccc2nn(-c3ccccc3)nc2c1)c1cccs1
  A: -40%	B: 4.5µM*	C: 42%	D: 4%
[18] Cc1nc2ccc(NC(=O)Cc3ccsc3)cc2s1
  A: -50%	B: 11µM*	C: -4%	D: 14%
[19] Cc1nc2ccc(NC(=O)c3ccccc3)cc2s1
  A: -65%	B: 3.5µM*	C: -9%	D: 9%
[20] Cc1nc2ccc(NC(=O)c3cccs3)cc2s1
  A: -62%	B: 6.3µM*	C: -1%	D: ?
[21] CC1CCc2nn(CC(=O)Nc3cccc(C(F)(F)F)c3)c(=O)cc2C1 (stereo unspecified)
  A: -3%	B: nt	C: 2%	D: nt
[22] O=C(Nc1ccc2nc3ccccc3nc2c1)c1ccc(Br)cc1
  A: -12%	B: ?	C: -5%	D: 3%
[23] CC(=O)Nc1ccc2nc3ccccc3nc2c1
  A: -38%	B: 5.6µM*	C: 528%	D: 14%
[24] Cc1nc2ccc(NC(=O)N3CCCCC3)cc2s1
  A: -39%	B: 11µM*	C: -7%	D: 29%
[25] Cc1nc2cc(NC(=O)CCS(=O)(=O)c3ccccc3)ccc2s1
  A: -52%	B: ?	C: -1%	D: 32µM*
[26] Cc1nc2ccc(NC(=O)CCS(=O)(=O)c3ccccc3)cc2s1
  A: -43%	B: ?	C: 21%	D: ?
[27] CCc1sc(C(=O)Nc2ccc3nc(C)sc3c2)cc1C
  A: nt	B: 3.2µM*	C: nt	D: 9%
[28] Oc1ccc(Br)cc1C1C=C(c2ccc3c(c2)OCO3)NC(c2cccc(F)c2)N1 (stereo unspecified)
  A: nt	B: 0%	C: nt	D: nt
[29] C/C(=N\Nc1ccc(Cl)c(C(=O)O)c1)c1cccs1
  A: -55%	B: 13µM*	C: 6%	D: 8%
[30] C/C(=N\Nc1ccc(Cl)c(C(=O)O)c1)c1ccc[nH]1
  A: -75%	B: 43%	C: -7%	D: 12%
[31] Cc1c(NC(=O)c2cccs2)cccc1C(=O)O
  A: -29%	B: 83%	C: -8%	D: 9%
[32] C/C(=N/Nc1ccccc1C(=O)O)c1cccs1
  A: -74%	B: 10µM*	C: -7%	D: 15%
[33] COc1ccc(-n2ncc3c(NC4CCCC4)ncnc32)cc1
  A: -2%	B: nt	C: 33%	D: nt
[34] O=C(COc1ccccc1O)c1cccs1
  A: -10%	B: 23%	C: 28µM*	D: 9%
[35] O=C(CC(C(=O)O)c1ccccc1)c1cccs1 (stereo unspecified)
  A: 1%	B: -4%	C: 2%	D: -2%
[36] CC(CC(=O)c1cccs1)CC(=O)c1cccs1
  A: -66%	B: 13µM*	C: -11%	D: ?
[37] O=C(CCNC(=O)N1CC(=O)Nc2ccccc21)Nc1ccc(Br)cc1F
  A: -5%	B: -1%	C: -2%	D: 4%
[38] O=C(CSCc1ccccc1)N1CCN(c2ccccc2)CC1
  A: -61%	B: 11µM*	C: -9%	D: ?
[39] CC(=O)Nc1ccc(Nc2nc(Nc3ccc(Cl)cc3)nc(N3CCOCC3)n2)cc1
  A: nt	B: -18%	C: nt	D: nt
[40] N=C1N(c2ccccc2)C(=S)C(=Nc2ccccc2)N1c1ccccc1
  A: nt	B: -12%	C: nt	D: nt
[41] COc1ccc(N=C2C(=S)N(c3ccc(OC)cc3)C(=NS(=O)(=O)c3ccccc3)N2c2ccccc2)cc1
  A: nt	B: 3.5µM*	C: nt	D: nt
[42] Cc1cccc(/C(N)=N/OC(=O)CCc2ccccc2)c1
  A: -44%	B: 13µM*	C: ?	D: 30%
[43] COc1ccc(/C(N)=N/OC(=O)CCc2ccccc2)cc1OC
  A: -25%	B: 58%	C: -4%	D: 26%
[44] COc1ccsc1NC(=O)OCc1ccc(Cl)cc1
  A: -45%	B: 13µM*	C: -11%	D: 10%
[45] COc1ccccc1CNC(=O)c1cccc(S(=O)(=O)N2CCCC2)c1
  A: nt	B: -13%	C: nt	D: 6%
[46] COC(=O)C(Cc1c[nH]c2ccccc12)NC(=O)c1ccc2nc[nH]c2c1 (stereo unspecified)
  A: nt	B: 10µM*	C: nt	D: 4%
[47] CCc1ccc(NC(=O)CC2C(=O)N(c3ccc(OC)cc3)C(=O)N2Cc2cccs2)cc1 (stereo unspecified)
  A: 7%	B: nt	C: 4%	D: nt
[48] COC(=O)CNc1c(-c2ccccn2)nc2ccc(Br)cn12
  A: -23%	B: 4.5µM*	C: -10%	D: nt
[49] Cc1ccc(Nc2c(-c3ccccn3)nc3ccc(Br)cn23)cc1
  A: -1%	B: nt	C: 5%	D: nt
[50] COc1cccc(CN(CC(=O)NC2CCCCC2)C(=O)c2csnn2)c1
  A: -1%	B: 2%	C: 1%	D: -3%
[51] O=c1c2sccc2nc(SCc2cc(=O)n3cc(Br)ccc3n2)n1Cc1ccccn1
  A: -18%	B: 6.3µM*	C: -19%	D: -1%
[52] Cc1ccc(C(=O)c2cn(Cc3ccc(Cl)cc3)c3nc(C)ccc3c2=O)cc1
  A: 4%	B: nt	C: ?	D: nt
[53] COC(=O)c1c(-c2ccc(C)cc2)csc1NC(=O)C1CC=CCC1C(=O)O (stereo unspecified)
  A: -33%	B: 11µM*	C: -2%	D: ?
[54] COc1ccc(-c2cnc(C(O)c3ccccc3)[nH]2)cc1 (stereo unspecified)
  A: nt	B: 13µM*	C: nt	D: nt
[55] OC(c1ccccc1)c1ncc(-c2ccccc2Cl)[nH]1 (stereo unspecified)
  A: nt	B: 10µM*	C: nt	D: nt
[56] COc1ccc(-c2cnc(C(O)c3ccc(-c4ccccc4)cc3)[nH]2)cc1 (stereo unspecified)
  A: nt	B: -6%	C: nt	D: nt
[57] COc1cccc(-c2cnc(C(O)c3ccccc3)[nH]2)c1 (stereo unspecified)
  A: nt	B: 11µM*	C: nt	D: nt
[58] OC(c1ccc(-c2ccccc2)cc1)c1ncc(-c2ccccc2Cl)[nH]1 (stereo unspecified)
  A: nt	B: -46%	C: nt	D: nt
[59] COc1ccc2c(c1)c(=O)c(C(=O)c1ccccc1)cn2CC(=O)Nc1ccc2c(c1)OCO2
  A: 4%	B: 12%	C: -19%	D: nt
[60] COc1cccc(NC(=O)C(=O)NCCc2sc(-c3cccc(C)c3)nc2C)c1
  A: -55%	B: ?	C: -6%	D: nt
[61] Oc1ccc(Br)cc1C=Nc1cccn2cc(-c3ccccc3)nc12
  A: -50%	B: 6.3µM*	C: 229%	D: ?
